Measured values from PMC6538996, “Evaluating the In Vivo Specificity of [^18F]UCB-H for the SV2A Protein, Compared with SV2B and SV2C in Rats Using microPET” (Molecules, 2019).

Chains of the proteins cited; added tags and fusions are not shown.
UniProt Q02563, whole entry: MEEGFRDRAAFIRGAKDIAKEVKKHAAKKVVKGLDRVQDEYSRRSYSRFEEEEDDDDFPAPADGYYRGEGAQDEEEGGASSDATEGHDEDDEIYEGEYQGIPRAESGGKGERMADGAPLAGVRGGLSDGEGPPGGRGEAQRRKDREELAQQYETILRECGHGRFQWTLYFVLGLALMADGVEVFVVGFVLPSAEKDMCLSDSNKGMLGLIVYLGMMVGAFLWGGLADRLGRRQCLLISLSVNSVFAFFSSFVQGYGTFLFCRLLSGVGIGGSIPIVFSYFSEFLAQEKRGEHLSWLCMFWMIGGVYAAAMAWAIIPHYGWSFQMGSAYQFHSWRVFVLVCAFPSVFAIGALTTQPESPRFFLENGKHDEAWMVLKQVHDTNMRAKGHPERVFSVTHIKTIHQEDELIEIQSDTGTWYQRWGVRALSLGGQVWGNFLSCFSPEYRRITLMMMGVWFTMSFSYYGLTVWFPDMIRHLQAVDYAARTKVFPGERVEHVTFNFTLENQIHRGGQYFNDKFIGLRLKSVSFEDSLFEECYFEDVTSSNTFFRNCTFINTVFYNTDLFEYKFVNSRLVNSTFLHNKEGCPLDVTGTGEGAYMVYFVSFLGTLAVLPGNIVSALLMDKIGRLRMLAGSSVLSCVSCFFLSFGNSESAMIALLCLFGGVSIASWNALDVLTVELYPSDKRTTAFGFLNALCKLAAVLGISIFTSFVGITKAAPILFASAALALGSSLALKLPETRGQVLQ

Biological target: T1, [^18F]UCB-H binding in rat brain (Rattus norvegicus, UniProt Q02563)
T1 construct: from tissue; host or cells: brain of living Sprague Dawley rats (microPET)
Assay: microPET blocking assay of [18F]UCB-H (Vt, Logan plot, PBIF) after pre-treatment with competitors
Assay type: in vivo, Sprague Dawley rats
Conditions: i.p. pre-treatment 30 min before PET, SV2AL 10 mg/kg, SV2BL and SV2CL 3 mg/kg
Description: The competitors were prepared daily in a vehicle composed of distilled water containing 1% methyl cellulose (viscosity: 15 cP, Sigma-Aldrich, Overijse, Belgium) and 5% dimethyl sulphoxide (DMSO, Sigma-Aldrich, Belgium). The concentrations differed depending on the product specifications and their respective pharmacokinetics, provided by UCB Pharma s.a. The dosing used was 10 mg/kg for SV2AL, 3 mg/kg for SV2BL, and 3 mg/kg for SV2CL. All solutions were administered through the intraperitoneal (i.p.) route in a total volume of 1 mL per kg of body weight. The animals used as a control group (vehicle) received an equal volume of vehicle through the same route of administration.
The animals (n = 5 per group) were anesthetized using 4% isoflurane in air at a flow rate of 1 L/min during induction and 1.5% to 2% isoflurane in air at 0.6 L/min during maintenance. Respiration rate and rectal temperature were continuously measured using a physiological monitoring system (Minerve, France). The temperature was maintained at 37 ± 0.5 °C using an air warming system.
MicroPET scans were performed with a Siemens FOCUS 120 microPET (Siemens, Knoxville, TN, USA). The animals were anesthetized and pre-treated i.p. with vehicle, SV2AL, SV2BL, or SV2CL. Thirty minutes later, they were installed in the microPET scanner and [^18F]UCB-H was injected via the lateral tail vein (44.7 ± 3 MBq, 0.55 mL), simultaneously starting a 60 min emission scan, in list mode. Finally, a 10 min transmission scan was performed in a single event acquisition mode, using a ^57Co source. The acquired data were then reframed as follows: 6 × 5 s, 6 × 10 s, 3 × 20 s, 5 × 30 s, 5 × 60 s, 8 × 150 s, and 6 × 300 s. For each frame, a total of 95 trans-axial slices were obtained using Fourier rebining (FORE), followed by 2D ramp filtered backprojection (FBP), in 256 × 256 matrix. The slice thickness was 0.796 mm and the in-slice pixel size was 0.433 mm.
Immediately after the PET acquisition, the anesthetized rats were transferred into a 9.4 Tesla MRI horizontal bore system (Agilent Technologies, Palo Alto, CA, USA), with a 72 mm inner diameter volumetric coil (Rapid Biomedical GmbH, Würzurg, Germany). Anatomical T2-weighted brain images were obtained using a fast spin echo multi-slice sequence with the following parameters: TR = 2000 ms, TE = 40 ms, matrix = 256 × 256, FOV = 45 × 45 mm, 30 contiguous slices of thickness = 0.80 mm and in-plane voxel size = 0.176 × 0.176 mm.
PMOD software (Version 3.6, PMOD Technologies, Zurich, Switzerland) was used to process the imaging data. The structural MRI images were firstly co-registered to the corresponding PET images, and subsequently spatially normalized into the PMOD MRI T2 template. Finally, the inverse normalization parameters were calculated and applied to the PMOD rat brain atlas to bring it in the individual PET space.
Individual time-activity curves (TACs) were extracted for each ROIs and normalized by the body weight and the injected dose of radiotracer to be expressed as standardized uptake value (SUV). A population-based input function (PBIF) published by our laboratory was used to avoid arterial blood sampling during the acquisitions. The distribution volume (Vt), was determined by Logan plot kinetic modelling using the TACs and the PBIF. The equilibration time (t*) was fixed at 15 min (starting point of the range used in the multi-linear regression analysis).
The results are presented as mean (Vt) ± standard error of the mean (SEM). All the data were tested for normal distribution with Levene’s test for homogeneity, and with a Kolmogorov–Smirnov test for normality. Data were analyzed using one-way analysis of variance (ANOVA) followed by Scheffe post-hoc tests.

CC[C@@H](C(N)=O)N1CCCC1=O [SV2AL, levetiracetam]
percentage of reduction of [18F]UCB-H Vt vs vehicle, Caudate/Putamen (from mean Vt, n = 5): 46.2%
percentage of reduction of [18F]UCB-H Vt vs vehicle, Cortex (from mean Vt, n = 5): 42.7%
percentage of reduction of [18F]UCB-H Vt vs vehicle, Hippocampus (from mean Vt, n = 5): 46.8%
percentage of reduction of [18F]UCB-H Vt vs vehicle, Inferior colliculus (from mean Vt, n = 5): 49.1%
percentage of reduction of [18F]UCB-H Vt vs vehicle, Midbrain (from mean Vt, n = 5): 46.3%
percentage of reduction of [18F]UCB-H Vt vs vehicle, Superior colliculus (from mean Vt, n = 5): 50.4%
percentage of reduction of [18F]UCB-H Vt vs vehicle, Thalamus (from mean Vt, n = 5): 45.9%
percentage of reduction of [18F]UCB-H Vt vs vehicle, Whole brain (from mean Vt, n = 5): 42.3%
percentage of reduction of [18F]UCB-H Vt vs vehicle, Mean of the eight ROIs (mean of eight ROIs): 46.2%
